This is a selection; strong and weak results do not stand in their true shares. Active and inactive are the calls of the source.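 How the source made its calls: active means growth inhibition above about 58% in most replicates (limit read from the data, passing the limit was not always enough); inconclusive means exactly half the replicates above a set limit; inactive means most replicates below a set limit.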

A short description of this assay: Candida growth reduction under fluconazole – CaCi-2 strain, Alamar Blue fluorescence, primary screen (AID 1979).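 Further: all wells also contain fluconazole at 8 µg/ml as a sub-toxic cotreatment; 0% = median of DMSO wells and 100% = median of geldanamycin control wells.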 To be noted: C. albicans CaCi-2 (fluconazole-resistant clinical isolate) + fluconazole, 48 h, hits give high values, concentration not given here. In general terms: The colour change of resazurin is a common sign of viable cells or microbes.
On to `O=P(Nc1ccccn1)(c1cccc2ccccc12)c1cccc2ccccc12`, for which the growth inhibition was active: 94.5%.

Consider `CCC(C)N(CC(C)C)C(=S)SC(NC(C)=O)C(Cl)(Cl)Cl` (configuration not stated), for which the growth inhibition was active: 98%.

The values are drawn from PubChem BioAssay AID1979 (Broad Institute, 2009).
